Experimental data taken from PubChem BioAssay AID504660 (National Center for Advancing Translational Sciences (NCATS), 2011).
The entries are a selection whose mix differs from that of the whole data set. Active and inactive are the calls of the source. Cut-off read from the data, not from the text of the source: active = activation above about 30%; inactive = the rest.

The chains behind the UniProt entries cited, without tags or fusion partners.
UniProt P21728, whole entry: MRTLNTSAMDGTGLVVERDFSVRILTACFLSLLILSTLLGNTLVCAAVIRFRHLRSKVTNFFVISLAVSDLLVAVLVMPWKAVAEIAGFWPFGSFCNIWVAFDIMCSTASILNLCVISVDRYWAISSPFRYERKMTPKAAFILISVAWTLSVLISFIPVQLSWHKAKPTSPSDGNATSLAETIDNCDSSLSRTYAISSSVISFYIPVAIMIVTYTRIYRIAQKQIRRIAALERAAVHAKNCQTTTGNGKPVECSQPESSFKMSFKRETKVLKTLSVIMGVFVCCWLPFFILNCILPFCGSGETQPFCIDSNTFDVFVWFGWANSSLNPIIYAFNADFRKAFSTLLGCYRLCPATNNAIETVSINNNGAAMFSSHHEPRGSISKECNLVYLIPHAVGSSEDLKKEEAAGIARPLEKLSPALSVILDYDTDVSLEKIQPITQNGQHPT

biological target: D(1A) dopamine receptor (Homo sapiens) (UniProt P21728); assay: Allosteric Agonists of the Human D1 Dopamine Receptor: qHTS; details: HEK293 T-REx D1 cells, calcium flux, agonist mode; at 2 µM; stronger effect = higher value; note: 0% is about no effect
Source text: NIH Chemical Genomics Center [NCGC] NIH Molecular Libraries Probe Centers Network [MLPCN] MLPCN Grant: NS064831-01 Assay Submitter (PI): David Sibley Dopamine receptors (DARs) are involved in the etiology and/or therapy of a number of neuropsychiatric and endocrine disorders. For instance, all receptor-based antiparkinsonian drugs work via stimulating the D1 DAR subtype whereas all FDA-approved antipsychotic agents are antagonists of this receptor. […] There are three different types of allosteric modulators that we are seeking, two of which will stimulate or augment receptor signaling, allosteric agonists and potentiators, while the third, allosteric antagonists, will attenuate receptor signaling. The present primary screening assay measures compound agonism by tracking calcium flux in a […], inducible Hek293 Trex D1 cell line.
Freshly passaged cells are plated in 1536 well black, clear bottom plates at a density of 4000 cells/well in 3 ul of complete media containing 1x tetracycline inducer. After an overnight incubation at […] in 5% CO2, cells are loaded with 2 ul of the no wash Calcium Assay Kit (ABD Bioquest) and incubated at room temperature for 30 to 90 minutes. Agonist read: A 10 cycle (1 second/cycle) baseline measurement is taken and then the FDSS online 1536 pintool delivers 23 nl of compound library (as well as dopamine controls) to the plate. The plate is measured for kinetically at 1 cycle/sec for 180 seconds and is considered to be the agonist portion of the assay (eg, compounds which activate a positive calcium response during this portion are flagged as potential agonists). Following the 180 second read, 1 ul of either an EC20 (positive modulation assay) or EC80 (negative modulation assay) is delivered by an onboard pipette head. Measurements are taken kinetically for an additional 180 seconds.

Row | SMILES | activation
1 | CCN(CC)CCCOC(=O)C(O)(c1ccccc1)c1ccccc1 | inactive: 1.41%
2 | CCOC(=O)c1ccc(NP(C)(=O)Oc2ccccc2)cc1 (stereo not given) | inactive: 4.61%
3 | COc1ccccc1OP(C)(=O)Nc1ccc(C)cc1 (stereo not given) | inactive: 0.0551%
4 | Cc1ccc(NP(C)(=O)Oc2ccccc2)c(C)c1 (stereo not given) | inactive: 3.92%
5 | COc1ccccc1OP(C)(=O)Nc1cc(Cl)ccc1C (stereo not given) | inactive: 0.531%
6 | COc1ccc(OP(C)(=O)Nc2cccc(F)c2)cc1 (stereo not given) | inactive: 1.13%
7 | Cc1cc(C)cc(OP(C)(N)=O)c1 (stereo not given) | inactive: 2.86%
8 | CC(C)(C)c1ccc(OP(C)(=O)Nc2ccc(SC(F)(F)F)cc2)cc1 (stereo not given) | inactive: 2.67%
9 | Cc1cccc(C)c1OP(C)(N)=O (stereo not given) | inactive: 4.47%
10 | O=[N+]([O-])c1ccc2c(c1)C=Nc1ccccc1O2 | inactive: 4.33%
11 | CP(=S)(Nn1cnnc1)Oc1ccccc1 (stereo not given) | inactive: 4.52%
12 | COc1ccccc1OP(C)(=O)Nc1ccccc1 (stereo not given) | inactive: -1.62%
13 | CP(=O)(Nc1ccccc1Br)Oc1ccccc1 (stereo not given) | inactive: 2.87%
14 | CCOP(C)(=S)SCC(=O)NC(C)C(=O)O (stereo not given) | inactive: 7.08%
15 | CCOC(=O)c1ccc(NP(C)(=O)Oc2ccc(OC)cc2)cc1 (stereo not given) | inactive: 3.26%
16 | CP(=O)(Nc1ccccn1)Oc1ccc(Cl)cc1 (stereo not given) | inactive: 0.396%
17 | Cc1cccc(C)c1OP(C)(=O)Nc1ccc(SC(F)(F)F)cc1 (stereo not given) | inactive: 13.6%
18 | CP(=O)(Nc1ccc(SC(F)(F)F)cc1)Oc1ccc(Cl)cc1 (stereo not given) | inactive: 2.79%
19 | CP(=O)(Oc1ccccc1)OC(c1ccccc1)C(F)(F)F (stereo not given) | inactive: 7.97%
20 | CP(=O)(NC(=O)Nc1ccccc1)Oc1ccccc1 (stereo not given) | inactive: 1.65%
21 | CCc1ccc(OP(C)(=O)N2CCN(c3ccc([N+](=O)[O-])cc3)CC2)cc1 (stereo not given) | inactive: 4.71%
22 | Cc1cc(C)cc(OP(C)(=O)Nc2ccc(SC(F)(F)F)cc2)c1 (stereo not given) | inactive: 6.38%
23 | Cc1nc2ccc3ccccc3c2s1.O=[N+]([O-])c1cc([N+](=O)[O-])c(O)c([N+](=O)[O-])c1 | inactive: -0.879%
24 | O=[N+]([O-])c1cc([N+](=O)[O-])c(-n2nnc3ccccc32)c([N+](=O)[O-])c1 | inactive: 0.668%
25 | COc1ccccc1OP(C)(=O)Nc1c(C)cccc1C (stereo not given) | inactive: 5.18%
26 | CN1CCCCC1COC(=O)C1(O)c2ccccc2CCc2ccccc21 (stereo not given) | inactive: 28.4%
27 | CCCOc1ccc(NP(C)(=O)Oc2ccc(Cl)cc2)cc1 (stereo not given) | inactive: 1.63%

Row | SMILES | activation
28 | CP(=O)(Nc1ccc(SC(F)(F)F)cc1)Oc1ccccc1 (stereo not given) | inactive: 4.21%
29 | CC1=C2N=C(C=C3N=C(C(C)=C4[N-][C@@](C)([C@@H]5N=C1[C@](C)(CCC(=O)NC[C@@H](C)OP(=O)([O-])O[C@H]1[C@@H](O)[C@@H](n6cnc7cc(C)c(C)cc76)O[C@@H]1CO)[C@H]5CC(N)=O)[C@@](C)(CC(N)=O)[C@@H]4CCC(N)=O)[C@@](C)(CC(N)=O)[C@@H]3CCC(N)=O)C(C)(C)[C@@H]2CCC(N)=O.[C-]#N.[Co+3] | inactive: 4.44%
30 | O=[N+]([O-])c1cc([N+](=O)[O-])c(Nc2nnnn2CCO)c([N+](=O)[O-])c1 | inactive: 1.05%
31 | CC1=NCCc2c1[nH]c1ccccc21.O=[N+]([O-])c1cc([N+](=O)[O-])c(O)c([N+](=O)[O-])c1 | inactive: 5.14%
32 | Cc1cc(C)cc(OP(C)(=O)Nc2ccccn2)c1 (stereo not given) | inactive: 6.74%
33 | CP(=O)(Nc1cccc(Br)c1)Oc1ccccc1 (stereo not given) | inactive: 8.77%
34 | Cc1ccc(C)c(NP(C)(=O)Oc2ccccc2)c1 (stereo not given) | inactive: 2.02%
35 | COc1ccccc1OP(C)(=O)Nc1cccc(Br)c1 (stereo not given) | inactive: -0.238%
36 | Cc1cc(C)cc(OP(C)(=O)Nc2ccc(C)cc2C)c1 (stereo not given) | inactive: 5.81%
37 | CCOC(=O)c1ccc(NP(C)(=O)Oc2cc(C)cc(C)c2)cc1 (stereo not given) | inactive: 22.3%
38 | O=C(OCCN1CCN(CCOCc2ccccc2)CC1)C(O)(c1ccccc1)c1ccccc1 | inactive: 4.82%
39 | CC(C)c1ccc(OP(C)(=O)Nc2ccc(SC(F)(F)F)cc2)cc1 (stereo not given) | inactive: 2.2%
40 | CP(=O)(Nc1ccccc1F)Oc1ccccc1 (stereo not given) | inactive: 1.2%
41 | CCN(CC)CCCOC(=O)C(O)(c1ccccc1)C1CCCCC1 (stereo not given) | inactive: 3.47%
42 | CCCCCOc1ccc(NP(C)(=O)Oc2ccc(Cl)cc2Cl)cc1 (stereo not given) | inactive: 4.22%
43 | CP(=O)(Nc1ccccc1)Oc1ccc(F)cc1 (stereo not given) | inactive: 2.38%
44 | COc1ccc(OP(C)(=O)Nc2ccc(SC(F)(F)F)cc2)cc1 (stereo not given) | inactive: -0.6%
45 | CCOC(=O)c1ccc(NP(C)(=O)Oc2ccc(F)cc2)cc1 (stereo not given) | inactive: 12.7%
46 | Cc1cc(-c2cccc3ccccc23)c(C)cn1.O=[N+]([O-])c1cc([N+](=O)[O-])c(O)c([N+](=O)[O-])c1 | inactive: 7.66%
47 | O=[N+]([O-])c1ccc(OP2(=O)COCCO2)cc1 (stereo not given) | inactive: 1.03%
48 | COc1ccc(OP(C)(=O)Nc2cccc(Br)c2)cc1 (stereo not given) | inactive: 3.66%
49 | COc1ccc(NP(C)(=O)Oc2ccccc2OC)cc1 (stereo not given) | inactive: 0.318%
50 | CN(C)CCOC(=O)C(O)(c1ccccc1)C1CCCCC1 (stereo not given) | inactive: 4.22%
51 | CP(=O)(Nc1ccc2c(c1)OCCO2)Oc1ccccc1 (stereo not given) | inactive: -0.101%
52 | Cc1ccccc1NP(C)(=O)Nc1ccccc1C | inactive: 3.46%
53 | CP(=O)(Nc1ccc(SC(F)(F)F)cc1)Oc1ccc(F)cc1 (stereo not given) | inactive: 0.697%
54 | CCOP(C)(=S)SCC(=O)NC(C)(CC)C(=O)O (stereo not given) | inactive: 3.55%

Row | SMILES | activation
55 | CP(=O)(Nc1ccc(Cl)cc1)Oc1ccc(F)cc1 (stereo not given) | inactive: 0.782%
56 | COc1ccccc1OP(C)(=O)Nc1ccccc1Br (stereo not given) | inactive: 1.08%
57 | CC(C)(C)c1ccc(OP(C)(=O)O)cc1 | inactive: 5.69%
58 | CN(C)C(=O)c1c([N+](=O)[O-])cc([N+](=O)[O-])cc1[N+](=O)[O-] | inactive: 1.2%
59 | CCN(CC)CC(O)COC(=O)C(O)(c1ccccc1)C1CCCCC1 (stereo not given) | inactive: 8.85%
60 | COc1ccc(OP(C)(=O)Nc2ccc(Br)cc2)cc1 (stereo not given) | inactive: 2.83%
61 | CP(=O)(Oc1ccccc1)N1CCOC1=O (stereo not given) | inactive: 7.34%
62 | CCc1ccc(OP(C)(=O)Nc2cccnc2)cc1 (stereo not given) | inactive: 1.13%
63 | COc1ccccc1OP(C)(=O)Nc1c(C)n(C)n(-c2ccccc2)c1=O (stereo not given) | inactive: 1.12%
64 | O=C(OCCCN1CCCC1)C(O)(c1ccccc1)C1CCCCC1 (stereo not given) | active: 35.6%
65 | CP(=O)(OC12CC3CC(CC(C3)C1)C2)OC12CC3CC(CC(C3)C1)C2 | inactive: 18.1%
66 | CCOC(=O)c1ccc(NP(C)(=O)Oc2ccc(Cl)cc2)cc1 (stereo not given) | inactive: 6.35%
67 | Cc1nc2ccc3ccccc3c2o1.O=[N+]([O-])c1cc([N+](=O)[O-])c(O)c([N+](=O)[O-])c1 | inactive: 1.61%
68 | CP(=O)(Nc1ccc(Cl)cc1Cl)Oc1ccccc1 (stereo not given) | inactive: 0.228%
69 | CP(=O)(OCCOc1ccccc1)OCCOc1ccccc1 | inactive: 1.29%
70 | Cc1cc(C)cc(OP(C)(=O)Nc2cccc(C(F)(F)F)c2)c1 (stereo not given) | inactive: 2.44%
71 | COc1ccc(OP(C)(=O)Nc2ccccc2Br)cc1 (stereo not given) | inactive: 0.116%
72 | COc1ccccc1OP(C)(=O)Nc1ccc(C)c(C)c1 (stereo not given) | inactive: 0.188%
73 | Cc1c(NP(C)(=O)Oc2ccc(C(C)C)cc2)c(=O)n(-c2ccccc2)n1C (stereo not given) | inactive: 3.75%
74 | O=[N+]([O-])c1cc([N+](=O)[O-])c(Nc2ccccn2)c([N+](=O)[O-])c1 | inactive: 5.2%
75 | CCc1ccc(OP(C)(=O)O)cc1 | inactive: 9.27%
76 | CP(=O)(Nc1ccccn1)Oc1ccccc1 (stereo not given) | inactive: 1.78%
77 | COc1ccccc1OP(C)(=O)Nc1ccc(C)cc1C (stereo not given) | inactive: 1.17%
78 | COc1ccccc1OP(C)(=O)Nc1ccc(Br)cc1 (stereo not given) | inactive: 3.77%
79 | CN(C)CCOC(=O)C(O)(c1ccccc1)C1CCCC1 (stereo not given) | inactive: 2.42%
80 | COc1ccc(OP(C)(=O)Nc2ccccn2)cc1 (stereo not given) | inactive: -0.0203%
